# According to article PMC10979493:
# Sequences of proteins named here, by UniProt entry; tags and fusion partners are left off. A change or cut given only in a name is not applied to a line headed by its entry. Residues count along the entry.
# UniProt P40763, whole entry: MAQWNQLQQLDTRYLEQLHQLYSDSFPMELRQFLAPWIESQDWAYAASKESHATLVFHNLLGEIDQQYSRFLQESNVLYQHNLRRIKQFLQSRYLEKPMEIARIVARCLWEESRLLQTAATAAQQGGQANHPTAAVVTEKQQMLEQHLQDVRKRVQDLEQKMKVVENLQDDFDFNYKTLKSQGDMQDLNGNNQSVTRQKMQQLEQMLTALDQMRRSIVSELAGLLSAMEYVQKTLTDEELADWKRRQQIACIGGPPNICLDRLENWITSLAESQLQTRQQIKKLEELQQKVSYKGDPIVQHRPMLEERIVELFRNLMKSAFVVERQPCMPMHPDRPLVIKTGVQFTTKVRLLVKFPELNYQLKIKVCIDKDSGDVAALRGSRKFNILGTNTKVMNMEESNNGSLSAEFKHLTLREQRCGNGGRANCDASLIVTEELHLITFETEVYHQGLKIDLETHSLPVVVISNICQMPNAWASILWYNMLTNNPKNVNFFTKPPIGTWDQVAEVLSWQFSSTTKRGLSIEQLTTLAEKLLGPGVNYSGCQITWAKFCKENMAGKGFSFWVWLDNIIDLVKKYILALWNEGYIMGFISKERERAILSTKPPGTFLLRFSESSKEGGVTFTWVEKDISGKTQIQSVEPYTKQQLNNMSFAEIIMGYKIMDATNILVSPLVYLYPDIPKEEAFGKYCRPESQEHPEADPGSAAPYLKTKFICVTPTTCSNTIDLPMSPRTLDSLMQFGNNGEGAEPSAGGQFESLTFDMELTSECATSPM
# UniProt P40763, 586-685 I659A limits assumed: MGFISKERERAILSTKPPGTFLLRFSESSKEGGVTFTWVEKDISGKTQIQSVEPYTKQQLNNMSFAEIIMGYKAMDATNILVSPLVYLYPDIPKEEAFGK
# UniProt P40763, 586-685 Y640A limits assumed: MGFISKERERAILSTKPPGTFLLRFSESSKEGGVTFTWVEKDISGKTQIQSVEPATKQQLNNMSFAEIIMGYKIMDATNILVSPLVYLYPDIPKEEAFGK
# UniProt P08684, whole entry: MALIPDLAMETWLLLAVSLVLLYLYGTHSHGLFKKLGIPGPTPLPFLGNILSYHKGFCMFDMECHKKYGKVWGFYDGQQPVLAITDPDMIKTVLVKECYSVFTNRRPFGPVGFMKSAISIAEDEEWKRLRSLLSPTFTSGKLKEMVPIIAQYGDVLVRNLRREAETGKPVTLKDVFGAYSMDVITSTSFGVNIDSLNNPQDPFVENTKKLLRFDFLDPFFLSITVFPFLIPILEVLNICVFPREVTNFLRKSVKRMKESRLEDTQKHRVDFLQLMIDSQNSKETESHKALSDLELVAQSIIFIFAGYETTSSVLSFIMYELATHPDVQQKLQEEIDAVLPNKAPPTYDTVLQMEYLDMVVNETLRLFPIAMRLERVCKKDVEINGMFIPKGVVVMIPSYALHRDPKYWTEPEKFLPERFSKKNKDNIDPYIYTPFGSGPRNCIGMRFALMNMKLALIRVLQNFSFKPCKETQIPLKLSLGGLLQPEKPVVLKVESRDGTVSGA
# Legend:
# [1] = target: STAT3-SH2D mutant Y640A (Homo sapiens, UniProt P40763, Y640A); assay: MST binding to STAT3-SH2 mutant Y640A
# Description: (§1) STAT1 (amino acid residues 127–716), STAT2 (amino acid residues 138–702), STAT3 (amino acid residues 127–722), STAT4 (amino acid residues 133–705), STAT5B (amino acid residues 136–703) and STAT6 (amino acid residues 113–658) were cloned into the pET28A vector. STAT3-SH2 (amino acid residues 586–685) and the mutants of the STAT3-SH2 produced by site-directed mutagenesis were also cloned into the pET28A vector. All recombinant human fusion proteins were expressed in E. coli BL21 (DE3). Then, according to different induction conditions, the protein expression was induced. During the induction of the expression of STAT3-SH2 and all the mutants, STAT1, STAT2, STAT3 and STAT6, when the OD value reached about 0.6–1.0, the E. coli was transferred to 22 °C and 0.5 mM Isopropyl β-D-1-thiogalactopyranoside (IPTG) was added. For the expression of STAT4 and STAT5B when the OD value reached about 0.5–0.6, the E. coli was transferred to 30 °C for 2.5–3 h and 0.2 mM IPTG was added.
# (§2) Microscale thermophoresis (MST) was conducted as previously described.[28] Binding affinities of YY002, Stattic against purified STAT3^127–722 and STAT3-SH2 protein or YY002 against STAT3-SH2 WT and mutants were measured by a Monolith NT.115 (Nanotemper Technologies). […] The samples were then loaded into premium capillaries (NanoTemper Technologies) and measured at 25 °C using 20%–40% LED power and medium MST power. […]
# [2] = Plasma stability, monkey
# [3] = Liver microsome stability, human
# [4] = system: PANC-1 tumor; assay: PANC-1 xenograft model
# [5] = target: full-length human STAT3 (Homo sapiens, UniProt P40763); assay: SPR binding to STAT3
# Description: Surface plasmon resonance (SPR) experiments were performed with a Biacore 8K instrument (Cytiva) with CM5 sensor chip (Cytiva). To test YY002 binding of STAT3 protein, serially diluted concentrations of YY002 were injected into the flow system. Experiments were conducted using the buffer: 10 mM PBS, pH7.4, 137 mM NaCl, 2.7 mM KCl, 1 mM DTT, 0.05% P20, 5% DMSO. Recombinant full-length human STAT3 (Creative Biomart, Catalog: STAT3–001H, Batch number: PSS1072207) was immobilized on the sensor chip (CM5) using the amine-coupling method according to standard protocols. The analyte was injected at the flow rate of 30 μL/min. The association time was 180 s and the dissociation time was 180 s. Since YY002 was dissolved in PBS containing 5% dimethyl sulfoxide and a solvent correction assay was performed to adjust the results. YY002 at various concentrations was injected into the flow system. The KD values were calculated with the kinetics and affinity analysis option of Biacore evaluation software.
# [6] = system: MDA-MB-231 tumor; assay: MDA-MB-231 xenograft model
# [7] = target: CYP3A4-M (Homo sapiens, UniProt P08684); assay: CYP3A4-M inhibition; conditions: safety profiling
# [8] = target: STAT3-SH2D mutant I659A (Homo sapiens, UniProt P40763, I659A); assay: MST binding to STAT3-SH2 mutant I659A
# Description: as §1, §2
# [9] = Tolerability in tumor-bearing mice (body weight, serum chemistry, hematology)
smiles,measurement,setting,value
Cn1c(C(=O)N2CCN(Cc3ccc(OCC(F)(F)F)cc3)CC2)cc2ccc(Oc3cnc(-c4nc(-c5ccc(C(F)(F)F)cc5)no4)cn3)cc21,Binding affinity compared with SH2D-WT,[1],only modestly changed
same,Plasma t1/2,[2],> 2 h
same,Liver Microsomes t1/2,[3],> 2 h
same,Tumor growth inhibition (TGI) rate,"[4]; 20 mg/kg, orally",93.56 ± 1.58%
same,STAT3 expression in tumors,[4]; immuno-staining,did not suppress STAT3 expression
same,STAT3 phosphorylation in tumors,"[4]; p.o. 5 mg/kg to 20 mg/kg, immuno-staining",significantly suppressed the phosphorylation of STAT3 at Tyr705 and Ser727
same,Kd,[5],65.3 nM
same,Antitumor efficacy compared to BBI608,"[6]; TNBC model, oral administration",superior antitumor efficacy compared to BBI608
same,Antitumor efficacy in vivo,[6]; orally,significant regression
same,IC50,[7],> 25000 nM
same,Binding to mutant,[8],did not bind
same,"Counts of white blood cells, lymphocytes, monocytes and neutrophils vs control","[9]; 10 mg/kg, P.O.",did not have a significantly influence
same,"Hepatic toxicity (ALT, AST)","[9]; 10 mg/kg, P.O.",did not induce hepatic toxicity
same,Serum BUN and CREA levels vs vehicle,"[9]; 10 mg/kg, P.O.",no significant difference
same,"Tolerability (systematic toxicity, body weight)",[9]; PANC-1 and MIA Paca-2 tumor models,well tolerated
